From EP4722215A1, “AMORPHOUS SUBSTANCE AND CRYSTAL OF DIOXOPIPERIDINE COMPOUND OR PHARMACEUTICALLY ACCEPTABLE SALT THEREOF, PREPARATION METHOD, AND USE” (Jiangsu Hengrui Pharmaceuticals Co., Ltd., priority 2023, dated 2024) come the findings set out here.

Series [1] is described as follows: Pharmacokinetic evaluation in cynomolgus monkeys, intragastric administration, plasma LC/MS/MS. It counts as in vivo. The note with it: both sexes, cynomolgus monkey, po, i.g., 2.0 mg/kg, read-out: Apparent distribution volume Vz/F. How it is done: Cynomolgus monkeys were used as test animals.
Eight cynomolgus monkeys (half male and half female, provided by Shanghai Medicilon Inc.) were evenly divided into 2 groups.
Access to food and ad libitum access to water were given 3 h after administration.

The nature of series [2]: in vivo. Particulars: both, beagle, dog, plasma, po, 2 mg/kg.

Regarding `N#Cc1ccc(O[C@H]2CC[C@H](NC(=O)c3ccc(N4CCC(CN5CCN(c6cc7c(cc6F)C(=O)N(C6CCC(=O)NC6=O)C7=O)CC5)CC4)nn3)CC2)cc1Cl` (some centres unmarked) [ARV-110], the Vd/F in series [1] was found to be 165 L/kg; in series [2], 278 L/kg.
